According to patent US11291670B2, “Therapeutic approaches for treating Alzheimer disease and related disorders through a modulation of angiogenesis” (PHARNEXT, priority 2008, dated 2022):

Tested on: Human Brain Microvascular Endothelial Cells (HBMEC)
Assay: human Aβ1-42 injury in HBMEC, total length of capillary network
Assay type: cell-based
Details: 1 hr pre-treatment at 10 nM, FIG. 2A

Substance: VEGF
- capillary network compared to amyloid intoxication: +78%
